Measured values reported in patent publication US4665224A, “Ester of (+) 6-methoxy-α-methyl-2-naphthalene acetic acid having mucosecretolytic, anti-inflammatory, analgesic, antipyretic activity, a process for its preparation and pharmaceutical compositions thereof” (priority 1984, dated 1987).

Test system: mouse
Conditions: in vivo, po
Protocol: Method for studying the lethal dose 50 (LD50) in the mouse after a single administration.
Groups of 10 Swiss albine, female, adult mice (20-22 grams of body weight) fasting from the evening preceding the test, are treated orally with varying doses of the test drup suspended into hydroxyethylcellulose (0.5% w/v.)
Thereafter, the animals are fed again.

COc1ccc2cc([C@H](C)C(=O)OCC3=CCC(C(C)(C)O)CC3)ccc2c1 (single isomer, unassigned; (+)) [CO/1446]
toxicity ratio versus (+)6-methoxy-α-methyl-2-naphthalene acetic acid: more favourable toxicity ratio
